{"sequences": {"note": "Amino acid sequences for entries named in this document (tags omitted). Residues count along the entry.", "UniProt P36896, 24-505, species assumed": "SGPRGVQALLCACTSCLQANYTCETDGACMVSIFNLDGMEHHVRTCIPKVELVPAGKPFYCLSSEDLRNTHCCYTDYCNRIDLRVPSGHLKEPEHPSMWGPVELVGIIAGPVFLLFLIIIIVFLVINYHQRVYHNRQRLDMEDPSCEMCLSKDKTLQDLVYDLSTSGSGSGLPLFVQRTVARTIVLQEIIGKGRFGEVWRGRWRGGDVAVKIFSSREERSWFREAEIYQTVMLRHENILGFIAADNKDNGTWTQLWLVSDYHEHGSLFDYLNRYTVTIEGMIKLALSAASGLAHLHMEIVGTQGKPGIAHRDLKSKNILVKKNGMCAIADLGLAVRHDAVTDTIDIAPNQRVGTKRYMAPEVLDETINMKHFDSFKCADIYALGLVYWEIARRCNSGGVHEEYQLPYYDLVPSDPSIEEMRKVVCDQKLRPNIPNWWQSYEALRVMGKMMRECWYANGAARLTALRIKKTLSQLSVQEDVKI"}, "source": "patent US20250188420A1", "about": "“MATURING AGENT HAVING BOTH OF ALK5 INHIBITORY ACTIVITY AND CDK8/19 INHIBITORY ACTIVITY” (ORIZURU THERAPEUTICS, INC., priority 2022, published 2025)", "molecular_target": "ALK4 (Homo sapiens, UniProt P36896)", "assay": "biochemical"}
{"smiles": "Cc1cccc(-c2n[nH]cc2-c2ccc3ncccc3n2)n1", "note": "[ALK5iII, 2-(3-(6-methylpyridin-2-yl)-1H-pyrazol-4-yl)-1,5-naphthyridine]", "values": [{"measurement": "IC50", "value": "< 10", "unit": "nM"}]}
